In US20240360177A1, “PEPTIDES WITH ANTIMICROBIAL ACTIVITIES” (priority 2021, published 2024):
In brackets after ≈: the same amount, converted by molar mass.

Assays:
[1] = Cytotoxicity in HepG2 cells, intracellular ATP assay; settings: human
human red blood cells = format: cell-based; settings: PBS, 37° C., 1 hr
Procedure: Hemolysis is a liability for many other cationic peptides which prevented their utility to treat systemic infections. The hemolytic potential of the peptides was tested using red blood cells collected from fresh human blood after centrifugation at room temperature and washed in phosphate buffered saline (pH 7.4) three times and then incubated in phosphate buffered saline (PBS) at 37° C. for 1 hr with the peptides at concentrations of 3-300 μg/mL. Triton-X100 was used as the positive control while the vehicle (PBS) was used as the negative control. Amphotericin B and melittin, both known to be hemolytic were used as reference compounds. Following incubation, the mixture was centrifuged at room temperature, and the supernatant was separated and analyzed for light absorbance at a single wavelength of 410 nm. The background absorbance reading from the negative control was subtracted from all samples. The Triton-X-100 sample was used to represent 100% lysis. All test compound and positive control samples were normalized to this value to determine the percent lysis caused by the test compounds and the positive controls at each concentration. EC50 value (the concentration of test article that produced a 50% lysis) was determined where possible for each test compound.

Question: Which results are given for CC[C@H](C)[C@H](NC(=O)CN)C(=O)NCC(=O)N[C@@H](C)C(=O)N[C@H](C(=O)N[C@@H](CC(C)C)C(=O)N[C@@H](CCCCN)C(=O)N[C@H](C(=O)N[C@@H](CC(C)C)C(=O)N[C@H](C(=O)N[C@H](C(=O)NCC(=O)N[C@@H](CC(C)C)C(=O)N1CCC[C@H]1C(=O)N[C@@H](C)C(=O)N[C@@H](CC(C)C)C(=O)N[C@H](C(=O)N[C@@H](CO)C(=O)N[C@@H](Cc1c[nH]c2ccccc12)C(=O)N[C@H](C(=O)N[C@@H](CCCCN)C(=O)N[C@@H](CCCNC(=N)N)C(=O)N[C@@H](CCCCN)C(=O)N[C@@H](CCCNC(=N)N)C(=O)N[C@@H](CCC(N)=O)C(=O)N[C@@H](CCC(N)=O)C(N)=O)[C@@H](C)CC)[C@@H](C)CC)[C@@H](C)O)[C@@H](C)O)C(C)C)C(C)C [Melittin]?
Answer: EC50 ([1]; EC50 cytotoxicity in HepG2, positive controls across studies, range across studies): 2.01 to 3.07 µg/mL (≈ 0.706 to 1.08 µM); EC50 ([1]; EC50 cytotoxicity in HepG2 cells (50% cell viability), Table 9, 18-22 hrs exposure without FBS): 2.01 µg/mL (≈ 0.708 µM); EC50 hemolysis (50% lysis) (human red blood cells): 2.63 µg/mL (≈ 0.924 µM)
